Experimental data from US20240115726A1, “HYDRAZONE-BASED SAPONIN DERIVATIVES” (priority 2020, published 2024).

System: SK-BR3 cells (HER2++/CD71+)
Test: HER2/CD71 targeted cell killing (MTS), Trastuzumab-saponin conjugate titration
Assay type: cell-based
Details: HER2++/CD71+ expressing cells; equivalent concentrations, without CD71mab-saporin

## Trastuzumab-(EMCH-SO1861)^4: Trastuzumab conjugated to SO1861-EMCH via thiol-ene reaction at DAR 4
  cell killing activity of the conjugate alone: could not induce any cell killing activity
